Results published in US20120059162A1, “FUSED IMIDAZOLE DERIVATIVE HAVING TTK INHIBITORY ACTION” (Oncotherapy Science, Inc., priority 2009, published 2012).

Amino acid sequences for entries named in this document (tags omitted).
UniProt P33981, whole entry: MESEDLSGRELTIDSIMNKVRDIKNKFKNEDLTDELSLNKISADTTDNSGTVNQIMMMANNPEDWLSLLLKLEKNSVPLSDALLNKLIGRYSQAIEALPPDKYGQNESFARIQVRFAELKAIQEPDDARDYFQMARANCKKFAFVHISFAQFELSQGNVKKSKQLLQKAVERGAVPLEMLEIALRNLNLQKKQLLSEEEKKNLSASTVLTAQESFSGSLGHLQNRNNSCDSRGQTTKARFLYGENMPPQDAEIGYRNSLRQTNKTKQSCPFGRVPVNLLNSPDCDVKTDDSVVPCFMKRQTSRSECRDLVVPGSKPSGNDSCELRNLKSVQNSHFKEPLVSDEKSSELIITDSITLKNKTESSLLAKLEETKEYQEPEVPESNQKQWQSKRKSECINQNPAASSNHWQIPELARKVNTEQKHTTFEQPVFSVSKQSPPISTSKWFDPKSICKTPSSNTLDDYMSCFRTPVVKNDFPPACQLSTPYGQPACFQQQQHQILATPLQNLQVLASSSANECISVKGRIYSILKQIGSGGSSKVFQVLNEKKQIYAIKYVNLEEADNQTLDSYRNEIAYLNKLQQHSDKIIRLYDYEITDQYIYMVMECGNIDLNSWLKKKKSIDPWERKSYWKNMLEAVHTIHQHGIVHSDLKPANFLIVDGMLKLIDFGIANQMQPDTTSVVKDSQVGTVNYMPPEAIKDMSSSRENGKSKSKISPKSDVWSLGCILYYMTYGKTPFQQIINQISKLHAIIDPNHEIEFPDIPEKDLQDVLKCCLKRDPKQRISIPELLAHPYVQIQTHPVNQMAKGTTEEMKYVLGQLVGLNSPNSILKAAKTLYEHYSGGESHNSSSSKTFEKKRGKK

Target: TTK (Homo sapiens, UniProt P33981)
Test: TTK assay: screening of TTK kinase activity suppressing action using p38 MAPK peptide
Type: biochemical
Details: read-out: TTK IC50

Compound | IC50 (p38 MAPK peptide substrate) [nM] | IC50 [nM]
CC[C@H](C)Nc1cc(NCC2CCOCC2)c2ncc(-c3ccc(C(=O)NC4CC4)cc3)n2n1 | 8.6 | –
N#Cc1ccc(-c2cn3c(-c4ccc(C(=O)NC5CC5)cc4)cnc3c(NCC3CCC(CN)CC3)n2)cc1 (stereo not shown) | 19.3 | –
O=C(NC1CC1)c1ccc(-c2cnc3c(NCC4CCOCC4)cc(-c4ccc(C(F)(F)F)cc4)nn23)cc1 | – | 4.4
COC(=O)CCCNc1cc(NC2CCCCC2)nn2c(-c3ccc(C(=O)NC4CC4)cc3)cnc12 | 13.6 | –

Like-named read-outs stand apart in the source and are kept apart here.
